pKi: −log10 of the molar value.
Experiments:
[1] = molecular target: 5-hydroxytryptamine receptor 2A (Homo sapiens, UniProt P28223)
[2] = molecular target: 5-hydroxytryptamine receptor 2B (Rattus norvegicus, UniProt P30994)

Sequences of proteins named here, by UniProt entry; tags and fusion partners are left off.
UniProt P28223, whole entry: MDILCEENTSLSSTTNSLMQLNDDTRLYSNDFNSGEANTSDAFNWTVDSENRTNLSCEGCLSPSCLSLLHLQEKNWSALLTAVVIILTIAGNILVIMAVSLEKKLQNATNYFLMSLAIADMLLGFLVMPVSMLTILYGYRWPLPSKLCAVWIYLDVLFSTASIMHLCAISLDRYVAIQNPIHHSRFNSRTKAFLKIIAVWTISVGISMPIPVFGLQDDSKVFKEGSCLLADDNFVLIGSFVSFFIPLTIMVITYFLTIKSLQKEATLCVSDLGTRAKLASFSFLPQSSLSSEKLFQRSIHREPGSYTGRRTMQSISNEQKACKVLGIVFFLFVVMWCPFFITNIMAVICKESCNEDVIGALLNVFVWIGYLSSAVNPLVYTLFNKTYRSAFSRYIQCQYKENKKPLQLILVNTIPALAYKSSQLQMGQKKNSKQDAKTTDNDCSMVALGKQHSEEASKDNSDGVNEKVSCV
UniProt P30994, whole entry: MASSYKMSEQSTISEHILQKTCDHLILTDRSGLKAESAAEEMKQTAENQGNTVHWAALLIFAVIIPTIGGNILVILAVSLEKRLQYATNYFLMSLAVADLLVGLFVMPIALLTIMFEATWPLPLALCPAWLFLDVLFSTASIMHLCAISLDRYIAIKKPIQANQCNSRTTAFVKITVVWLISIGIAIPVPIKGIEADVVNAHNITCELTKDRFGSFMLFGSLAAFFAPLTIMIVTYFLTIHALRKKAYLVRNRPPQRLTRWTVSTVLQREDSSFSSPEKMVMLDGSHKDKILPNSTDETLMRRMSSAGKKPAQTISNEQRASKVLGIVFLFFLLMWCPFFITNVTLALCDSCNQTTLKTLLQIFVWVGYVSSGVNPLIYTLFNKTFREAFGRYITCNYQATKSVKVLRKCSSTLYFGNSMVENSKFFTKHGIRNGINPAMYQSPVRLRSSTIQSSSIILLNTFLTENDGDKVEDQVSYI

With `COc1ccc(OC)c(CC(C)N)c1` (configuration not stated) [2-(2,5-Dimethoxy-phenyl)-1-methyl-ethylamine] the pKi [1] was 6.68 and the pKi [2] was 6.02.
